# Measured affinities in a library of Ab-14 light chain variants

Values reported by Li et al. 2023, doi:10.1038/s41467-023-39022-2 (FLAb copy).

Target peptide (SARS-CoV-2 spike, HR2 region): PDVDLGDISGINAS

Parent: Ab-14, a human scFv built as VH, a (GGGGS)3 linker, VL. Only the CDRs of the light chain vary.
VH: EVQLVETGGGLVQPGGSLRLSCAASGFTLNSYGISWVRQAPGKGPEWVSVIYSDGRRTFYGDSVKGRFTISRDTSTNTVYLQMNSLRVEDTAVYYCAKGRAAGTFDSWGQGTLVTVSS
VL: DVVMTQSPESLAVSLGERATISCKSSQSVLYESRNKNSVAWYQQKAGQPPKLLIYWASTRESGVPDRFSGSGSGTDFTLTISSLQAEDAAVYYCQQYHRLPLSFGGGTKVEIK

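The starting antibody came from a phage panning campaign against this peptide. This is the validation round: designs drawn from the data on random variants, tested in the same kind of assay. Several design methods are mixed in this list. Affinity was read by AlphaSeq, a pooled yeast mating assay with surface-displayed partners. The frequency of each diploid, read from paired DNA barcodes, reflects how well the two displayed proteins bind. Read counts were normalised to the haploid input and turned into Kd by a linear fit to BCL2-family pairs of known affinity, for each replicate. There are six technical replicates.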

The parent's light chain CDRs are KSSQSVLYESRNKNSVA, WASTRES, QQYHRLPLS; each variant's own CDRs replace them letter for letter.
Scale: log10 of Kd in nM, estimated from mating counts; low values are strong binders.
The mean shown is taken over the replicates in which the pair was detected.
"nd" means that the variant was in the library but no mating with the target was seen in any replicate; the authors take this as a sign of poor binding, and no number exists.
Empty control strains, which show no peptide, gave a signal in 4% of pairings with all light chain designs; the median was 2.64 and 95% of these signals were weaker than 1.59. No background was subtracted.
The authors averaged sequences with at least three values out of six and counted those with two or fewer as poor binders.
A sequence measured in both rounds can read differently, since the two assays cover different ranges.
Of ten entries with the parent sequence, four were seen in most replicates (averages 0.34 to 2.37), three in one and three in none, so single entries are noisy.

| log10 Kd (nM), mean | replicates with signal | CDR-L1 | CDR-L2 | CDR-L3 |
|---|---|---|---|---|
| 0.08 | 6 of 6 | KSGQGVLYESRNKNSVA | GASERES | QQYHRLPLS |
| 0.96 | 6 of 6 | ILEENSDDITEIGNSIA | ETNMVRS | QQYHRLPLA |
| nd | 0 of 6 | KHSQSLLYESRFKNSVA | WASERES | QQYHRLPLW |
| 0.07 | 6 of 6 | HVSSMLMAGGGIYNSIA | GNKVLER | QQYMRLPLM |
| -0.17 | 6 of 6 | HLSWVVLYESRNKNSVA | NASTREQ | QQYHRLPLS |
| 4.02 | 1 of 6 | IVSQLMMWGMHAKNSIA | EAVTRYN | QQYDRLPLI |
| nd | 0 of 6 | KSSQSVLYESRNKNSVA | LASTRES | QQYHPLPLS |
| 0.32 | 6 of 6 | KVSQSELGESRNKMSVA | NASTREK | QQYHRLPLS |
| 2.60 | 1 of 6 | KLGGEQQNSTYEMDNVA | DVNTTYE | QHYSRLPLT |
| 1.38 | 6 of 6 | AFTNSIFYGQRDSNSIA | HADVLEK | QQYFRFPLA |
| 0.53 | 6 of 6 | KSSQSVLYEMNQKQSVA | EASTRES | QQYHRLPLT |
| 1.60 | 4 of 6 | KASQSVLYESRNKRPVA | HASTRES | QQYHRLPLS |
| 0.90 | 6 of 6 | KLENSNLYESRNGNSVA | NASTRYS | QQYHRLPLS |
| 0.79 | 6 of 6 | KIEQLVFPYGPSWHSIA | NAETLLA | QQYYMLPLM |
| 0.32 | 6 of 6 | TISQMTSLFSQSINNVA | EVSTREN | QQYDRLPLS |
| 0.03 | 6 of 6 | KLQFSSGMSQRNKNSVA | SASTRES | QQYHRLPLS |
| 1.18 | 6 of 6 | KLSNVTHSESRNKNSIA | EMVTREV | QQYDRLPLS |
| 1.48 | 6 of 6 | KLTTQVGHQMDHKNSIA | EVDMVAC | QQYMHLPLI |
| 0.14 | 6 of 6 | KLSWSMLYESRNKNSVA | NASQRES | QQYHRLPLS |
| 1.88 | 6 of 6 | MISGVLHMLGAKKNSIA | DLVMRAN | QQYHRLPLF |
| 2.91 | 6 of 6 | MVYESMDQALRTHNSIA | DNQTREN | QQYDRLPLS |
| 2.31 | 6 of 6 | MISQLYNMGSFAINSVA | QASERNT | QQYDRLPLT |
| 2.15 | 6 of 6 | HMSMLTLQGMRHKNSVA | QMTTREN | QQYDRLPLS |
| 0.35 | 6 of 6 | KMQQSELMESRNVNSVA | HASLRLE | QQYHRLPLS |
| 1.53 | 4 of 6 | MLDQMDSQMGVNTNNIA | GVVESRI | QQYHRLPLS |
| 3.26 | 3 of 6 | MVYETMDIAMMKKNSIA | DNQTRED | QQYHHLPLS |
| 0.15 | 6 of 6 | KLQMSWLYESRNKNSVA | NASQRES | QQYHRLPLS |
| nd | 0 of 6 | MIAESVGYQSRNKNSVA | DNSTREQ | QCYDRLPLS |
| 1.17 | 6 of 6 | QLSHYKHENMGKWQNVA | EMTIREK | QQYAHLPLN |
| 1.78 | 1 of 6 | KLSIFHQIESINKSNVA | EMVTRES | QQYDRLPLS |
| 0.25 | 6 of 6 | KSSISYLEESRNKNSVA | EASTRES | QQYHRLPLS |
| 2.97 | 1 of 6 | KLNQSVLYESRNKNSVA | RASTRES | QRYHRLPLS |
| 1.30 | 6 of 6 | KITQLVMETSKSKNNVA | EVSTVPD | QQYHRLPLS |
| 0.26 | 6 of 6 | TIGASLMFGTRNRNNVA | EVSERLN | QQYDRLPLF |
| 2.59 | 4 of 6 | HISQSVGMTSFNKNSVA | ENTTREN | QQYDRLPLS |
| nd | 0 of 6 | IVSQLMLWGMHVKNSIA | EAVTRVN | QQYDRLPLF |
| 0.88 | 6 of 6 | SLMQVGGYESNNKRSIA | DLRTRES | QQYHRLPLS |
| -0.01 | 6 of 6 | KHSQSVLYESRNKNSVA | DASTRSS | QQYHRLPLS |
| -0.07 | 6 of 6 | KISQWKLGEWRNKNSVA | DASQRES | QQYHRLPLS |
| 2.88 | 4 of 6 | KASFSVLYESRNKNSVA | GGSTNES | QQYHRLPLS |
| 1.27 | 6 of 6 | KFSQSFLYESRNKNCVA | KASTRAS | QQYHRLPLS |
| 0.39 | 6 of 6 | HITYGMMIAGRHSKSIA | QAEERAK | QQYDRLPLS |
| -0.09 | 6 of 6 | KYSQSVLYESRNKNSVA | AASTRES | QQYHRLPLS |
| -0.12 | 6 of 6 | KYYPSELYESRNKNSVA | QASTRES | QQYHLLPLS |
| 0.18 | 6 of 6 | KSSSSYLYESMNKNSVA | NGSTRES | QQYHRLPLS |
| 0.18 | 6 of 6 | SMSWAHFNGDNWKNSIA | DATHVAY | QQYSRLPIT |
| 0.77 | 6 of 6 | KSSQSVLYESRNKNSVA | HGSTRES | QQYSRLPLS |
| 0.00 | 6 of 6 | SLYEAMQTGGLHTSNIA | DVNQQMR | QHYMRLPLA |
| 2.10 | 6 of 6 | KSSQSVFYESRNKNSVA | FASTRED | QQYQRLPLS |
| 0.69 | 6 of 6 | KITATMRFEQKNSNNIA | EVSTRSK | QQYYRLPIS |
| 0.81 | 6 of 6 | VLSDTIENQADEADNIA | DATETSK | QQYYRLPLS |
| -0.27 | 6 of 6 | KLQQSVLYESRNKNSVA | NASQRES | QDYHRLPLS |
| 0.30 | 6 of 6 | KSSHSVYYESTNKNSVA | EASTRVS | QQYHRLPLS |
| 0.97 | 6 of 6 | KLGAATRFESSNQASIA | NNSTREE | QQYHRLPLS |
| 1.11 | 6 of 6 | KISQMVRVGSTASNSIA | EEQTRAK | QQYHRLPLS |
| 0.07 | 6 of 6 | KLDWSVMLESRNKNSVA | QASTRMS | QDYHRLPLS |
| 1.02 | 6 of 6 | HITYGMQVMGRHSKSIA | QAEERAR | QQYDRLPLE |
| -0.14 | 6 of 6 | KLSQSQLYESRNHKNVA | NASTRVS | QQYHRLPLS |

For reference, 9 entries of the list once more:

CDR-L1,CDR-L2,CDR-L3,"log10 Kd (nM), mean",replicates with signal
KYSQSVLYESRNKNSVA,AASTRES,QQYHRLPLS,-0.09,6 of 6
HISQSVGMTSFNKNSVA,ENTTREN,QQYDRLPLS,2.59,4 of 6
KMQQSELMESRNVNSVA,HASLRLE,QQYHRLPLS,0.35,6 of 6
HITYGMQVMGRHSKSIA,QAEERAR,QQYDRLPLE,1.02,6 of 6
KASQSVLYESRNKRPVA,HASTRES,QQYHRLPLS,1.60,4 of 6
KLTTQVGHQMDHKNSIA,EVDMVAC,QQYMHLPLI,1.48,6 of 6
KLSWSMLYESRNKNSVA,NASQRES,QQYHRLPLS,0.14,6 of 6
KSGQGVLYESRNKNSVA,GASERES,QQYHRLPLS,0.08,6 of 6
KITATMRFEQKNSNNIA,EVSTRSK,QQYYRLPIS,0.69,6 of 6